These are literature values, as cited in US20080199485A1 (priority 2007, published 2008).

For this data set the following is noted: cited from earlier work.

For the substance 5′-TCCATGACGTTCCTGAATAAT-3′, the half-life in tissues is 48 h.
